Assay results as given in ChEMBL document CHEMBL1147874, “Structure-activity based study of the Smac-binding pocket within the BIR3 domain of XIAP” (Bioorg Med Chem, 2007).

By UniProt entry, the sequences of proteins in these tests, tags left out.
UniProt P98170, whole entry: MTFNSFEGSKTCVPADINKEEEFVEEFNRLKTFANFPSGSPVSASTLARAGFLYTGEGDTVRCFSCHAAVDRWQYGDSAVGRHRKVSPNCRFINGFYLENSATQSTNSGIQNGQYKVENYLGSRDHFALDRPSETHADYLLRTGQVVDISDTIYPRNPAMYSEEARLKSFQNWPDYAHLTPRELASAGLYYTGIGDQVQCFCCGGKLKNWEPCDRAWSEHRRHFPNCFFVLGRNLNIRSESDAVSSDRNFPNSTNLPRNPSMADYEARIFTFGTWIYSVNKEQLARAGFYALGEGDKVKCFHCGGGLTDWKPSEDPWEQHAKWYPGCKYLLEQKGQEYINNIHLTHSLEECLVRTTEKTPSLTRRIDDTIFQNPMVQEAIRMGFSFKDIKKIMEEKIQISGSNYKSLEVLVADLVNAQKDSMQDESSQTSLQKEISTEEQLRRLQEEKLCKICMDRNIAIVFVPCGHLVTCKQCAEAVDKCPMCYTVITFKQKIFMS

Biological target: E3 ubiquitin-protein ligase XIAP (Homo sapiens, UniProt P98170)
Experiment: Binding affinity to BIR3 domain of XIAP by competitive fluorescent binding assay

SMILES: CC(C)[C@H](NC(=O)[C@H](C)N)C(=O)N1CCC[C@H]1C(=O)N[C@@H](Cc1ccccc1)C(=O)O
- Kd: 500 nM
